The chains behind the UniProt entries cited, without tags or fusion partners. Where a name states a change or a piece, a line headed by the entry shows the natural chain unless it says otherwise. Residues count along the entry.
UniProt P31645, whole entry: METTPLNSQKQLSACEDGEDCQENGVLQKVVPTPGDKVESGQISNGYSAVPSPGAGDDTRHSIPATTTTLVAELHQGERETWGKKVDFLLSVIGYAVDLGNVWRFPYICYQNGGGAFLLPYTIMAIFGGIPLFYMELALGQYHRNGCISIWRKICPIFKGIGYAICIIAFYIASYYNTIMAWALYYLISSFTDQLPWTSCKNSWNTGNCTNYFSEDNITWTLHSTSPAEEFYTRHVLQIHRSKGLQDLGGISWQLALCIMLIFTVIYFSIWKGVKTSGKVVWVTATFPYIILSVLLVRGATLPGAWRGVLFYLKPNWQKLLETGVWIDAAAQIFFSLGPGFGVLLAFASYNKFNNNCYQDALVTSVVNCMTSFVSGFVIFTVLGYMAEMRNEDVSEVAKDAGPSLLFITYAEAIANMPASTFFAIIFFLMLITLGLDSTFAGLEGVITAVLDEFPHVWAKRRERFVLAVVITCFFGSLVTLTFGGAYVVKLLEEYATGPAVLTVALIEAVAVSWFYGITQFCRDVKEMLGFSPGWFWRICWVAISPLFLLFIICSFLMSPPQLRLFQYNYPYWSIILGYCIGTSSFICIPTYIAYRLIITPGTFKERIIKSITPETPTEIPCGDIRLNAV
UniProt P20309, whole entry: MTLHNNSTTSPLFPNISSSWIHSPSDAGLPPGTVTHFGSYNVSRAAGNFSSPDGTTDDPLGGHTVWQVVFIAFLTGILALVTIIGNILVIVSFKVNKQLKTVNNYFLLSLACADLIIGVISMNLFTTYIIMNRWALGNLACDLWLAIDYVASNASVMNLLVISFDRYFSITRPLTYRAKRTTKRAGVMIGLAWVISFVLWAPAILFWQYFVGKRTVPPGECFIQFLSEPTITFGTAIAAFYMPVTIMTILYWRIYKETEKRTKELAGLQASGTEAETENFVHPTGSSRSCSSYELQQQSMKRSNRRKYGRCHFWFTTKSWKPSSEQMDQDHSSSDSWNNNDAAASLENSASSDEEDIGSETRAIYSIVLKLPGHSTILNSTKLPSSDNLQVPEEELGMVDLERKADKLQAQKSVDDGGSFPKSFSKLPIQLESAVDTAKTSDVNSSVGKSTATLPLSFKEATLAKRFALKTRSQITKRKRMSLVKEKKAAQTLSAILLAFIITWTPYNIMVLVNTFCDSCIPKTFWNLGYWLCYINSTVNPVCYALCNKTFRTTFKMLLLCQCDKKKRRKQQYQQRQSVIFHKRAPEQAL
UniProt P23975, whole entry: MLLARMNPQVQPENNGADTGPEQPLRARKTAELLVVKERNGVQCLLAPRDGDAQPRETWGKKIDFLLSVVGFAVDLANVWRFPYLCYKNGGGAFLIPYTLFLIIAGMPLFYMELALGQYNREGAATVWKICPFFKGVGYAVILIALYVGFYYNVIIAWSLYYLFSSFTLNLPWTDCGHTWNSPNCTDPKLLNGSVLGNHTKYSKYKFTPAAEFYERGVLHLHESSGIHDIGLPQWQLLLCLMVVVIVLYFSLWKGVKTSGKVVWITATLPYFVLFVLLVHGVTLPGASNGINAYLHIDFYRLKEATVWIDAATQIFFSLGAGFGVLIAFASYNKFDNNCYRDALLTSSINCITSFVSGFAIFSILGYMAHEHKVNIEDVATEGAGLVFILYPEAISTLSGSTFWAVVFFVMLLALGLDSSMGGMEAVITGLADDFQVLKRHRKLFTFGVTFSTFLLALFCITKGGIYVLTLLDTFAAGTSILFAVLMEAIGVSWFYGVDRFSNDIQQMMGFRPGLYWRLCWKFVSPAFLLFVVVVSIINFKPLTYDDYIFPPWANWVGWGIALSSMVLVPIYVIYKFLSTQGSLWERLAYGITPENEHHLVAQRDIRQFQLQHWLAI
UniProt P08588, whole entry: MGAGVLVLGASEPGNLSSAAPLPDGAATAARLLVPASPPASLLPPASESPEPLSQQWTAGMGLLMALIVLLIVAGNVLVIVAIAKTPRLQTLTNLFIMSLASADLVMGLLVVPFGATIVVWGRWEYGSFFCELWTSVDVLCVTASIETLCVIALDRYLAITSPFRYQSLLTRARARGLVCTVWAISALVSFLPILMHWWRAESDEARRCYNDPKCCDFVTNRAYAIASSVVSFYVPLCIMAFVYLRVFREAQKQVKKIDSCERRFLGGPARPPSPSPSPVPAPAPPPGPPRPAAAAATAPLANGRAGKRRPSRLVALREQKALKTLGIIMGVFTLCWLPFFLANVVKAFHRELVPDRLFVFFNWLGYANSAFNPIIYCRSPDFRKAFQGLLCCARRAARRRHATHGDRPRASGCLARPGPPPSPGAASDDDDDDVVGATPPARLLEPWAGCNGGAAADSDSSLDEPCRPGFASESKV
UniProt P22303, 32-614: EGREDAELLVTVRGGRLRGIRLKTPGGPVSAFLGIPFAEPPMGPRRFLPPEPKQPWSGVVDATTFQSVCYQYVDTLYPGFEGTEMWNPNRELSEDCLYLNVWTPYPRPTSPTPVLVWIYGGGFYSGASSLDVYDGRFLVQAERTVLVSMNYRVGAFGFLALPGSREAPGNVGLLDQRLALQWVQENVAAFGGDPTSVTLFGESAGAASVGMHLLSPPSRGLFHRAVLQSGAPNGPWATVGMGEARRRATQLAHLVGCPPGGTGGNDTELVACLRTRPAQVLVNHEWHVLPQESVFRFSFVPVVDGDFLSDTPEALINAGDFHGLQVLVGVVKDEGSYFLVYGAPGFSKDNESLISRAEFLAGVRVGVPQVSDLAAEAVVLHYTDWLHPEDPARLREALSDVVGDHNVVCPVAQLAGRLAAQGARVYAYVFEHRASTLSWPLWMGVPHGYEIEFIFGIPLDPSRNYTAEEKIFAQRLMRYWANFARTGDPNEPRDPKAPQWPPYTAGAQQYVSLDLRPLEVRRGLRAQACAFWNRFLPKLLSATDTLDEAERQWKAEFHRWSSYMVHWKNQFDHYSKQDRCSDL
UniProt Q08499, 303-809 limits assumed: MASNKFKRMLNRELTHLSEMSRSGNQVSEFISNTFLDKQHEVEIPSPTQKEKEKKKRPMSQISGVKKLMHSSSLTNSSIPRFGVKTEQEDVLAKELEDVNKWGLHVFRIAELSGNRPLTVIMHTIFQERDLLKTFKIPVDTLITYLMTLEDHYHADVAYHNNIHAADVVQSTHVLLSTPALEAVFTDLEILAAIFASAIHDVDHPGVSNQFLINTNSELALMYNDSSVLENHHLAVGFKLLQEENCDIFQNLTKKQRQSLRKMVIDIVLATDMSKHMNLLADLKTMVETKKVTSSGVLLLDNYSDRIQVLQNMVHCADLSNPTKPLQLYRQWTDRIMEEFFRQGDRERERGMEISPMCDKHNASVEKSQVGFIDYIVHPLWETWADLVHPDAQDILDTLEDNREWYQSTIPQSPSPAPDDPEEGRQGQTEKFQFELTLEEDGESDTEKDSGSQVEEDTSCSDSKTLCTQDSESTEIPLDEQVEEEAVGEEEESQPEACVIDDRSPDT
UniProt P34972, whole entry: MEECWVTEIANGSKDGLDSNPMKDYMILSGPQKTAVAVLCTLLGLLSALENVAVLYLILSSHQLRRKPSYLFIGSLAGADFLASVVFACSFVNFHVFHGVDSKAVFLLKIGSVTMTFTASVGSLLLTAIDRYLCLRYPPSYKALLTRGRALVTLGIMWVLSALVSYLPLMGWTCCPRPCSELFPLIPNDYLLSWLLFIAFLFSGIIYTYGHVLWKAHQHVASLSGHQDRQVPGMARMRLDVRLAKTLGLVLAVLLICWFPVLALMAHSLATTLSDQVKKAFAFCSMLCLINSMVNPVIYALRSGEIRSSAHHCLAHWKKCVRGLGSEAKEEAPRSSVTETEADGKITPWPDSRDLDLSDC
UniProt P41145: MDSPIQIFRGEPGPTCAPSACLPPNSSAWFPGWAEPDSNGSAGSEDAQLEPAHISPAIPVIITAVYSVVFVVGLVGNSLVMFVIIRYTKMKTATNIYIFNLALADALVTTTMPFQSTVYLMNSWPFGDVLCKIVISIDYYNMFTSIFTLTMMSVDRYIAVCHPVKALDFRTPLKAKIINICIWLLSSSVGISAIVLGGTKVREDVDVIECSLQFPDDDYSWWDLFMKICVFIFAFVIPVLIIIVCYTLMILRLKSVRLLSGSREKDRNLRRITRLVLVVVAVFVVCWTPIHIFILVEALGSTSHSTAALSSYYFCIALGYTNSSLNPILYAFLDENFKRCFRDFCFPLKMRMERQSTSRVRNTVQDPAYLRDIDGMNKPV

According to paper PMC5864910, “Mutacin 1140 Lantibiotic Variants Are Efficacious Against Clostridium difficile Infection” (Frontiers in Microbiology, 2018):

What was measured:
5-HT Transporter = 5-HT Transporter (Homo sapiens, UniProt P31645)
M3 = M3 (Homo sapiens, UniProt P20309)
NT = NT (Homo sapiens, UniProt P23975)
Beta1 = Beta1 (Homo sapiens, UniProt P08588)
ACHE = ACHE (Homo sapiens, UniProt P22303)
PDE4D2 = PDE4D2 (Homo sapiens, UniProt Q08499)
CB2 = CB2 (Homo sapiens, UniProt P34972)
alpha1A = target: T1, alpha1A (Homo sapiens, UniProt P35348)
T1 sequence (P35348 1-466): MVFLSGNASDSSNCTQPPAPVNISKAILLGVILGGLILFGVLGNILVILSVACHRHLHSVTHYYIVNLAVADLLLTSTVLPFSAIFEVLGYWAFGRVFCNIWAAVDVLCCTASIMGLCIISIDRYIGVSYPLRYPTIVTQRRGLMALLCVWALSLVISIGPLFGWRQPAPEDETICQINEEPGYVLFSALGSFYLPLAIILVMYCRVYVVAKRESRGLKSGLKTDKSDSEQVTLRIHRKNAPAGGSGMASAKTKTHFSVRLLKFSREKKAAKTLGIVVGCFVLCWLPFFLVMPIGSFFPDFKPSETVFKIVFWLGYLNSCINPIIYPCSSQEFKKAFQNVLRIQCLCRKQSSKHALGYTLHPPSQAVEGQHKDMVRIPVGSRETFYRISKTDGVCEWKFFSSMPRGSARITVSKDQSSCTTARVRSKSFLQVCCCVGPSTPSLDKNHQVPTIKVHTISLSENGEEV

GR = target: T2, GR (Homo sapiens, UniProt P04150)
T2 sequence (P04150 1-777): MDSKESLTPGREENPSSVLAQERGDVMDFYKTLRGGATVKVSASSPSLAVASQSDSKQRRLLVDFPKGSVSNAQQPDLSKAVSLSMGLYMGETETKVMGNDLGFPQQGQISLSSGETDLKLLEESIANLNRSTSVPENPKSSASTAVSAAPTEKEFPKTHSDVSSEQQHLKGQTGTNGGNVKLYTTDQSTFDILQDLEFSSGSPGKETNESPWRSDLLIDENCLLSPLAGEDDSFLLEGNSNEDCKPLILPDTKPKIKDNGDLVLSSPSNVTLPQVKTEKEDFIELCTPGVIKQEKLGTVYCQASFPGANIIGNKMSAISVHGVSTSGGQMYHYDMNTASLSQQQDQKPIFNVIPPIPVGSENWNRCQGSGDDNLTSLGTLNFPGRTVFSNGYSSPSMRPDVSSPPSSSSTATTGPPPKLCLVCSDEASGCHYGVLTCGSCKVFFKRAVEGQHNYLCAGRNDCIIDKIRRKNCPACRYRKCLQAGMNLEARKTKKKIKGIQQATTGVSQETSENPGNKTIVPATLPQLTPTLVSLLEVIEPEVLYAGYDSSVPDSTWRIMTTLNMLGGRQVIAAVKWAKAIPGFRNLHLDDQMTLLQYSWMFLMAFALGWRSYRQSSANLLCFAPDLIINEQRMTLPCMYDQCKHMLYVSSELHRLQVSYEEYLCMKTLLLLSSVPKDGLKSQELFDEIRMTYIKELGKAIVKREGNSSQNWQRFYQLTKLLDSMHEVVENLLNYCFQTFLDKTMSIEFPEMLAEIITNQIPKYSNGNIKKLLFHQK

kappa (KOP) = kappa (KOP) (Homo sapiens, UniProt P41145)

## C=C1NC(=O)[C@H](Cc2c[nH]c3ccccc23)NC(=O)[C@H](NC(=O)[C@H](CCCCN)NC(=O)[C@@H](N)Cc2ccccc2)CSC[C@@H](C(=O)N[C@H]2C(=O)N3CCC[C@H]3C(=O)NCC(=O)N[C@H](C(=O)N[C@@H](C)C(=O)N[C@@H](CCCNC(=N)N)C(=O)N/C(=C\C)C(=O)NCC(=O)N[C@@H]3CSC[C@@H]4NC(=O)[C@H](Cc5ccc(O)cc5)NC(=O)[C@@H](CS/C=C\NC4=O)NC(=O)[C@H](CC(N)=O)NC(=O)[C@H](Cc4ccccc4)NC3=O)CS[C@H]2C)NC(=O)[C@H](C)NC1=O [L6A]
5-HT Transporter
  Cerep SafetyScreen 44 % Inhibition 5-HT Transporter: -7%
M3
  Cerep SafetyScreen 44 % Inhibition M3: -4%
NT
  Cerep SafetyScreen 44 % Inhibition NT: 4%
Beta1
  Cerep SafetyScreen 44 % Inhibition Beta1: -8%
ACHE
  Cerep SafetyScreen 44 % Inhibition ACHE: -13%
PDE4D2
  Cerep SafetyScreen 44 % Inhibition PDE4D2: 3%
CB2
  Cerep SafetyScreen 44 % Inhibition CB2: 10%
alpha1A
  Cerep SafetyScreen 44 % Inhibition alpha1A: -6%
GR
  Cerep SafetyScreen 44 % Inhibition GR: -1%
Kappa (KOP)
  Cerep SafetyScreen 44 % Inhibition kappa (KOP): 11%
